Experimental findings from paper PMC11023938 (Nature, 2024) are described below.

Common to all, as to format: cell-based, mouse
Assay [1] relates to bone marrow-derived macrophages. Description: Macrophage efferocytosis of neutrophils. The protocol: An efferocytosis assay kit (Cayman, 601770) was used following the manufacturer’s instructions. Neutrophils were labelled with CFSE and cultured in RPMI with 2% serum for 12 h to induce cell death. Bone marrow-derived macrophages cultured for 7 days were seeded at a density of 4 × 10^5 cells per well in a 6-well plate with DMEM/F12 containing 10% FBS and 100 units ml^−1 penicillin/streptomycin. […] Macrophages were collected, labelled with CytoTell Blue, and then incubated with CFSE-labelled dead/dying neutrophils at different ratios (1:1, 1:2, and 1:4) at 37 °C for 15 min. The reaction was stopped by washing cells with ice-cold PBS containing 5% FBS and 1 mM EDTA. Cells were analysed with BD LSR Fortessa X-20 and FlowJo software (BD Biosciences). Macrophages were identified by CytoTell Blue-positive staining, and the efferocytosis index was calculated as the percentage of CFSE-positive cells in CytoTell Blue-labelled macrophages.
Macrophages (4 × 10^5 cells per well in a 6-well plate) were transfected with 10 nM scrambled siRNA (Silencer Select Negative Control No. 1 siRNA, Thermo Fisher, 4390843) or Silencer Select Pre-Designed siRNA against mouse TSP-1 (Thermo Fisher, s124596) using Reduced-Serum Medium (Opti-MEM, Gibco) and Lipofectamine RNAiMAX (Invitrogen, 51985034) for 6 h. The medium was then replaced with fresh culture medium (DMEM/F12 with 10% FBS). […]

Assay [2] has the same test system. Kind of assay: Macrophage polarization marker expression (CD206, arginase-1, Ly6C). Here is the method:
Bone marrow cells from 8- to 12-week-old C57BL/6 J mice were flushed, filtered and cultured in conditioned medium (DMEM/F12 with 10% heat-inactivated FBS, 100 units ml^−1 penicillin/streptomycin, and 20% L929 fibroblasts-conditioned medium) at 37 °C with 5% CO2. After 7–9 days, differentiated macrophages were collected and seeded in 12-well or 6-well plates. […] Macrophages were detached with TrypLE (Gibco) containing 3 mM EDTA, stained with LIVE/DEAD Aqua dye for 20 min on ice, and incubated with blocking solution (10 μg ml^−1 TruStain FcX anti-CD16/32 (clone 93, BioLegend)) for 20 min before staining with antibodies for 30 min on ice. Antibodies from BioLegend included PE anti-CD11b (clone M1/70, 1 μg ml^−1), BV711 anti-F4/80 (clone BM8, 2 μg ml^−1), APC anti-CD80 (clone 16-10A1, 0.5 μg ml^−1) and PE-Cyanine7 anti-CD206 (clone C068C2, 1 μg ml^−1). For intracellular staining, cells were fixed and permeabilized using FluoroFix Buffer and Intracellular Staining Permeabilization Wash Buffer (Perm buffer, BioLegend). APC anti-mouse arginase-1 (Thermo Fisher, Clone AlexF5, 1 μg ml^−1) was added to the Perm buffer and incubated with the cells for 30 min on ice. After washing with Perm buffer and staining buffer, cells were analysed using BD LSR Fortessa X-20 and FlowJo software (BD Biosciences).
Macrophages (4 × 10^5 cells per well in a 6-well plate) were transfected with 10 nM scrambled siRNA (Silencer Select Negative Control No. 1 siRNA, Thermo Fisher, 4390843) or Silencer Select Pre-Designed siRNA against mouse TSP-1 (Thermo Fisher, s124596) using Reduced-Serum Medium (Opti-MEM, Gibco) and Lipofectamine RNAiMAX (Invitrogen, 51985034) for 6 h. The medium was then replaced with fresh culture medium (DMEM/F12 with 10% FBS). After 24 h, cells were collected for the migration assay. […] After 24 h, cells were collected and co-cultured with dead or dying neutrophils. The evaluation of cell death and polarization used the same methods as those for assessing macrophage death and polarization marker expression.

For assay [3], the system named is Thbs1 expression in neutrophils. Kind of assay: Gene expression (RNA-seq, qPCR of Thbs1) in neutrophils. To be noted: CGRP 1 nM, 4 h. From the text:
After collection, RNA extraction used the RNeasy Plus Micro Kit (Qiagen). For PCR with reverse transcription (RT–PCR) and quantitative PCR (qPCR), reverse transcription used ReverTra Ace (Toyobo). RT–PCR primers were: Human_Calcrl 5′-[…]-3′ and 5′-[…]-3′; Human_Ramp1 5′-[…]-3′ and 5′-[…]-3′; Mouse_Calcrl 5′-[…]-3′ and 5′-[…]-3′; Mouse_Ramp1 5′-[…]-3′ and 5′-[…]-3′. Human or mouse GAPDH primers were from Integrated DNA Technologies (51-01-07-12 and 51-01-07-13, respectively). PCR products were analysed by gel electrophoresis. qPCR was performed using LightCycle96 with software LightCycle96 (Roche Diagnostics) and TaqMan Assay primers from Thermo Fisher Scientific (Thbs1, Mm00449032_g1; Gapdh, Mm99999915_g1). For RNA-seq, RNA quantity and quality assessment, library preparation and sequencing were performed at the Medical Genomics Facility, Monash Health Translation Precinct (MHTP). RNA quantity was assessed using Qubit. RNA samples (20 ng) with RNA integrity number (RIN) value ≥ 7 were used for library preparation. […] Standard Illumina R1 primer was used (main cDNA read), followed by standard i7 primer for index or unique molecular identifier. R2 primer was present but not used as it will read into poly-A tail. […]
Fastq files were processed using the nfCore/RNAseq (v3.2) pipeline using the umi function. Reads were aligned to the Mus musculus GRCm38 reference using STAR aligner. […]
A general note: Quantitative PCR measures a nucleic acid by following its amplification.

In the case of calcitonin gene-related peptide [CGRP], in assay [1] (CGRP 1 nM, Thbs1 siRNA 10 nM), the “effect of CGRP on efferocytosis upon Thbs1 knockdown” value is on record as “abolished”. In assay [1] (CGRP 1 or 20 nM pre-treatment 24 h, in the absence and presence of IL-1β and TNF), the macrophage efferocytosis entry is “marked increase”. The “effect of CGRP on macrophage polarization (CD206) upon Thbs1 knockdown” value in assay [2] (CGRP 1 nM, Thbs1 siRNA 10 nM, IL-4/IL-13) is recorded as “abolished”. Further, the CD206 level result in assay [2] (CGRP 1 or 20 nM, in the presence of IL-4/IL-13) is on record as “increased levels”. Besides, the arginase-1 level entry in assay [2] (CGRP 1 or 20 nM, in the presence of IL-10) is reported as “increased levels”. Also, the “macrophage Ly6C expression” value in assay [2] (CGRP 1 or 20 nM, in vitro) is “no direct impact”. Moreover, the “Thbs1 expression in neutrophils” value in assay [3] (RNA-seq) is listed as “most upregulated gene”. In assay [3] (qPCR), the “Thbs1 expression in Ramp1−/− neutrophils” value is recorded as “did not upregulate”.
